# Experimental data taken from US20050053580A1, “Use of microbiology non-viral substances for treating acne” (priority 2001, published 2005).
# Tested on: SZ95 sebocytes
# Experiment: SZ95 sebocyte proliferation, crystal violet assay
# Type: cell-based, human
# Settings: 1 μM oligonucleotide, 4 h transfection, 14 h recovery
substance,measurement,value
5′-GCCAAGCUCAAGGAUGGAAGUGCAG-3′,toxicity (apoptosis/necrosis) to SZ95 sebocytes,probably toxic
